Source: PubChem BioAssay (NCI)
Values joined by “and” are separate entries in the source; they are usually repeats but may differ in a detail not shown here. Identical values can stand only once.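 Five compound concentrations were applied to cells in 96-well plates for 48 hours; endpoints were derived by simple linear interpolation of the resulting dose-response curve. GI50 marks 50% less growth. TGI denotes the concentration required for complete inhibition of growth.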

Assays:
Assay in all cases: NCI tumour cell line growth inhibition, 48 h
ACHN renal = test system: ACHN renal
CAKI-1 renal = test system: CAKI-1 renal
DLD-1 colon = test system: DLD-1 colon
DMS 114 small cell lung = test system: DMS 114 small cell lung
DMS 273 small cell lung = test system: DMS 273 small cell lung
HCC-2998 colon = test system: HCC-2998 colon
HL-60(TB) leukemia = test system: HL-60(TB) leukemia
HOP-92 NSCLC = test system: HOP-92 NSCLC
K-562 leukemia = test system: K-562 leukemia
KM20L2 colon = test system: KM20L2 colon
MALME-3M melanoma = test system: MALME-3M melanoma
MOLT-4 leukemia = test system: MOLT-4 leukemia
NCI-H226 lung = test system: NCI-H226 lung
NCI-H23 lung = test system: NCI-H23 lung
NCI-H460 lung = test system: NCI-H460 lung
P388 leukemia = test system: P388 leukemia
P388/ADR leukemia = test system: P388/ADR leukemia
RXF-631 renal = test system: RXF-631 renal
SF-539 CNS = test system: SF-539 CNS
SN12K1 renal = test system: SN12K1 renal
T-47D breast = test system: T-47D breast

## CN(CCCl)CCCl
ACHN renal
  GI50: 0.349 µM and 0.399 µM and 0.216 µM
  TGI: 7.99 µM and 5.18 µM and 7.92 µM
CAKI-1 renal
  TGI: 1.24 µM and 6.57 µM and 11 µM
DLD-1 colon
  GI50: 3.4 µM
  TGI: 22.4 µM
DMS 114 small cell lung
  GI50: 2.26 µM
  TGI: 11.5 µM
DMS 273 small cell lung
  GI50: 0.432 µM
  TGI: 6.89 µM
HCC-2998 colon
  TGI: 14.1 µM [middle of 4 runs]
HL-60(TB) leukemia
  TGI: 1.94 µM and 4.58 µM and 1.53 µM
HOP-92 NSCLC
  TGI: 4.92 µM [middle of 4 runs]
K-562 leukemia
  GI50: 13.2 µM and 7.56 µM and 13.6 µM
  TGI: 83.9 µM and 135 µM
KM20L2 colon
  GI50: 4.46 µM
  TGI: 14.1 µM
MALME-3M melanoma
  TGI: 4.9 µM [middle of 4 runs]
MOLT-4 leukemia
  TGI: 3.48 µM and 9.28 µM and 2.76 µM
NCI-H226 lung
  TGI: 42.3 µM [middle of 4 runs]
NCI-H23 lung
  TGI: 12 µM [middle of 4 runs]
NCI-H460 lung
  GI50: 0.225 µM and 0.142 µM
  TGI: 2.49 µM and 2.51 µM and 5.27 µM
P388 leukemia
  GI50: 0.0547 µM
  TGI: 0.966 µM
P388/ADR leukemia
  GI50: 0.0571 µM
  TGI: 2.67 µM
RXF-631 renal
  GI50: 5.05 µM
  TGI: 14 µM
SF-539 CNS
  GI50: 1.44 µM [middle of 4 runs]
  TGI: 7.09 µM [middle of 4 runs]
SN12K1 renal
  GI50: 3.82 µM
  TGI: 26.8 µM
T-47D breast
  TGI: 8.38 µM [middle of 4 runs]
